Drawing on ChEMBL document CHEMBL5291721, “A preclinical secondary pharmacology resource illuminates target-adverse drug reaction associations of marketed drugs” (Nat Commun, 2023), this text covers AC50 for three compounds.

The chains behind the UniProt entries cited, without tags or fusion partners.
UniProt P23975, whole entry: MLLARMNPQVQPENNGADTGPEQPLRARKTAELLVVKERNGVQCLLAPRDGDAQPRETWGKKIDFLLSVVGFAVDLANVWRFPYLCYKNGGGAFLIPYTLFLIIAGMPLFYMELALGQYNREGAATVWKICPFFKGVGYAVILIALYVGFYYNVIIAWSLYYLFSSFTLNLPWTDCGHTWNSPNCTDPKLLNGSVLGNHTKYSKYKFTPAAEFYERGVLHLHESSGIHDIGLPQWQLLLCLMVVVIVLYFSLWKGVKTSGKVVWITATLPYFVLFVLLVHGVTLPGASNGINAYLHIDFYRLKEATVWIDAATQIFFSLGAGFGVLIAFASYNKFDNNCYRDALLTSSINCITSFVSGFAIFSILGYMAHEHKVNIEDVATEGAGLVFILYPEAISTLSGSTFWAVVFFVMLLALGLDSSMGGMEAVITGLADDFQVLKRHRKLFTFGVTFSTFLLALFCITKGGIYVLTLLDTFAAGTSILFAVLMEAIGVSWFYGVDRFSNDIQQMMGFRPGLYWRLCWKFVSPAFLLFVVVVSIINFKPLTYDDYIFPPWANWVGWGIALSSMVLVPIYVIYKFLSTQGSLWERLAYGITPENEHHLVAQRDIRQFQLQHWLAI
UniProt Q01959, whole entry: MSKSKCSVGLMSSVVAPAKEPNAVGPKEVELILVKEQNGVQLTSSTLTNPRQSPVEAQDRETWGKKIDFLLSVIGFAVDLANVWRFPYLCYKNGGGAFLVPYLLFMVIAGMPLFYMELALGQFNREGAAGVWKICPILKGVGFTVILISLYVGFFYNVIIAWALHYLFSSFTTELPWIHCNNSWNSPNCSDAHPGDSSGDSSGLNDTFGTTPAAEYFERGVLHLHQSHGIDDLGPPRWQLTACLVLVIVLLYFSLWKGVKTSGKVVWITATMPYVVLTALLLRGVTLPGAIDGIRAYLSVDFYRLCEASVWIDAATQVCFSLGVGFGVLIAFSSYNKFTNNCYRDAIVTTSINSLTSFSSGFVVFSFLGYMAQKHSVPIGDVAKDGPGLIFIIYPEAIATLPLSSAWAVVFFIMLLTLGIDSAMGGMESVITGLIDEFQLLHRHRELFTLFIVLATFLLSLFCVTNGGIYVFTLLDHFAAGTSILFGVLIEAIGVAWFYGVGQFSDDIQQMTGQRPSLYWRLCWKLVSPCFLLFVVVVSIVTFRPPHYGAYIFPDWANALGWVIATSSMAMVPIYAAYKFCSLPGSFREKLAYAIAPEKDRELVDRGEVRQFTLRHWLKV
UniProt P31645, whole entry: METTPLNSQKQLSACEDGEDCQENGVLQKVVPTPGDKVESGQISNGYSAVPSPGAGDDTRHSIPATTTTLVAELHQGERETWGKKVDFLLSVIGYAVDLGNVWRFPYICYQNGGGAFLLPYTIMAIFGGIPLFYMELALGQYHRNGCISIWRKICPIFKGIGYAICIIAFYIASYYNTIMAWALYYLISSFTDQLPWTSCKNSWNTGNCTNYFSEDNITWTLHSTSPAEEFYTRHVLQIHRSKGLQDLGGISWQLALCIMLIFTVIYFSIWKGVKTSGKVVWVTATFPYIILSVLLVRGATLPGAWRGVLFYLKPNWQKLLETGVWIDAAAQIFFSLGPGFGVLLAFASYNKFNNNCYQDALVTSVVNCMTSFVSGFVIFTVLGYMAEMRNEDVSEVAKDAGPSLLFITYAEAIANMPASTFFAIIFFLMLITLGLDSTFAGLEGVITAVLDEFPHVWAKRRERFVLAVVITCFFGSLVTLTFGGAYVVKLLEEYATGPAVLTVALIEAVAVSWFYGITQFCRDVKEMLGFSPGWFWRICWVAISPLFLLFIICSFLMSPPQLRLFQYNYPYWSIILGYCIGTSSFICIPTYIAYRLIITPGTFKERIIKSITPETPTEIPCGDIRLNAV
UniProt P08588, whole entry: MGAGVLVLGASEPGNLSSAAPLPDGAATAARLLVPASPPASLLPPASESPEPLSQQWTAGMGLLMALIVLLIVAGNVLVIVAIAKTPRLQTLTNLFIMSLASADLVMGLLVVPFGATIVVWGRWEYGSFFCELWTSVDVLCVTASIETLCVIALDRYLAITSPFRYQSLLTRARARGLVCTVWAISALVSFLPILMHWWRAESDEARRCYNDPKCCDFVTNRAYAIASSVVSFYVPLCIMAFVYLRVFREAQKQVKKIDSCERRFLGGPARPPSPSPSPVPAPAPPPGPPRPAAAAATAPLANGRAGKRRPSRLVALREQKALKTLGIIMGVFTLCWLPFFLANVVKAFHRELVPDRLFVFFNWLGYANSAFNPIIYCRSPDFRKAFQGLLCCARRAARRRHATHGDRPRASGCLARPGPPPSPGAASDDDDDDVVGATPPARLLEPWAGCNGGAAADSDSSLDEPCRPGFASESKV
UniProt P07550, whole entry: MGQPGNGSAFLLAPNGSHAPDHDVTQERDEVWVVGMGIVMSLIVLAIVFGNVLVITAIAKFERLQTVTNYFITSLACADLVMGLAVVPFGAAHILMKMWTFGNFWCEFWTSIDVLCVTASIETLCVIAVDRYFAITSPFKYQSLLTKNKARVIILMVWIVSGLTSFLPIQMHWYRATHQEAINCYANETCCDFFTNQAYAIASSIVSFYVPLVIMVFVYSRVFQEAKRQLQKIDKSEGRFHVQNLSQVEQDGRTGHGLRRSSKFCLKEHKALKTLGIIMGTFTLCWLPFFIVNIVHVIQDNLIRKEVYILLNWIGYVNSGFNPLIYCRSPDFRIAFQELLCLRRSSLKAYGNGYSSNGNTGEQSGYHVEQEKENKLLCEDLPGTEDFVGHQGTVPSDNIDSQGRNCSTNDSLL

Molecules are shown by their SMILES.

Assay [1] has as its target Sodium-dependent noradrenaline transporter (Homo sapiens, UniProt P23975).
The target of assay [2] is Sodium-dependent dopamine transporter (Homo sapiens, UniProt Q01959).
The target in assay [3] is Sodium-dependent serotonin transporter (Homo sapiens, UniProt P31645).
Assay [4] addresses Beta-1 adrenergic receptor (Homo sapiens, UniProt P08588). It is filed as functional.
Assay [5] deals with Beta-2 adrenergic receptor (Homo sapiens, UniProt P07550). It is filed as functional, cell-based.
Also: assay procedure not described here.

For the compound `CN(C)CC(c1ccc(O)cc1)C1(O)CCCCC1` (stereo not given) [DESVENLAFAXINE], the AC50 was 12.1 µM in assay [1], 26.5 µM in assay [2] and 0.0448 µM in assay [3].

In the case of `CC(C)NCC(O)c1ccc(NS(C)(=O)=O)cc1` (stereo not given) [SOTALOL], the AC50 in assay [4] turned out to be 3.9 µM.

The compound `OCc1cc([C@@H](O)CNCCCCCCOCCOCc2c(Cl)cccc2Cl)ccc1O` [VILANTEROL] had an AC50 in assay [5] of 0.0058 µM.
